# Source: PubChem BioAssay (Broad Institute)
# Hits are enriched below; roughly 1.3% of the tested compounds scored in any of these assays.
# LGR2 inh – Drosophila LGR2 receptor signaling inhibition; HEK293 LGR2, CRE-luciferase, bursicon-stimulated, 4 h; inhibition, % at 9.99 µM; 380,000 compounds, 0.35% hits; AID 720647;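 active means drop in luminescence signal, shown as inhibition above about 50% in the replicate tests, limit read from the data, passing the limit was not always enough; inconclusive means probably only some replicates passing the limit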;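 further: agonist challenge used bursicon conditioned medium at about half maximal strength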
# F508del corr – correctors of CFTR F508del function in bronchial epithelial cells; CFBE cells, YFP halide quenching; stimulated with forskolin plus potentiator P3; % fluorescence drop versus neutral controls; activity (quench increase), % at 7.58 µM; 350,000 compounds, 0.36% hits;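 active means mean added fluorescence quench of at least 8% versus neutral control, with both replicates also reaching 8%; inconclusive means only one of the mean or replicate conditions met; inactive means mean below 8% and not both replicates reaching 8%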;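 further: cells transiently co-express mutant CFTR-F508del with the halide-sensitive YFP; corrector assay measuring rescue of mutant channel to the surface after 24 h compound exposure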
# UUG fidelity – modulators of yeast start codon fidelity, primary screen, whole organism, S. cerevisiae, single point, plate reader | AID 602363, 2012 | S. cerevisiae UUG-firefly luciferase reporter, luminescence/redox ratio | activity score, % at 18.7 µM | hit rate 0.13% among 350,000;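 active = replicate mean at a twofold rise or more, about +100% in these data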;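 also: firefly luciferase made from a UUG start codon reports start codon fidelity; reporter light over untreated wells divided by growth signal over untreated wells; some hits fall short of that in this replicate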
# PglD inh – inhibitors of Campylobacter jejuni PglD acetyltransferase; purified PglD enzyme, DTNB colorimetric CoA detection; inhibition, % at 12.5 µM; 360,000 compounds, 0.098% hits; AID 602405; in the data active means inhibition above about 16%, passing the limit was not always enough; inconclusive means no clear call, values can overlap the other calls
# miR122 inh – blocks miR-122 activity in Huh7 sensor cells; Huh7 miR-122 Renilla luciferase sensor, 48 h; neutral wells = 0, positive control = 100; activation (reporter increase), % at 12.5 µM; 340,000 compounds, 0.3% hits; AID 602342;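 active means mean replicate activation score at least 90 and every replicate individually at or above 90; inconclusive means only one of the two criteria met; inactive means neither criterion met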;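 further: higher luciferase means less miR-122 activity so hits act as miR-122 inhibitors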
# EWS-Fli block – EWS/Fli transcriptional activity inhibition. A673 NR0B1-luciferase reporter, viability-normalised. inhibition, % at 12.6 µM. 350,000 compounds, 0.67% hits;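 active means mean inhibition of at least 50% after viability correction, with every replicate also passing that limit; inconclusive means mean reaches 50% but only one of two replicates passes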;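 further: firefly luciferase signal divided by Alamar Blue viability fluorescence both relative to DMSO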
# Active calls of the source: *; u = inconclusive; x = no result given; [ ] = dose if it differs, or a comment.
nr | mol | LGR2 inh | F508del corr | UUG fidelity | PglD inh | miR122 inh | EWS-Fli block
1 | O=C(Nc1ccc(F)cc1)N1CCCCN2[C@@H](CO)[C@H](c3ccc(C#Cc4ccccc4)cc3)[C@@H]2C1 | 11.4 | 3.1 | -10.6 | -2.0 | -24.2[16.7 µM] | 60.5*
2 | COc1ccc(C#Cc2ccc([C@@H]3[C@H](CO)N4CCCCN(C(=O)Nc5ccccc5)C[C@@H]34)cc2)cc1 | -13.4 | -4.9 | 27.3 | 0.0 | -36.0[16.7 µM] | 69.7*
3 | COc1ccc(C(=O)CC(=O)C(=O)Nc2ccccc2C(F)(F)F)cc1 | -1.2 | 0.5 | -17.8 | 0.6 | x | 18.6
4 | O=C(NCCc1ccc(Cl)cc1)C1CCCN(c2ncnc3c2nc2n3CCCCC2)C1 (configuration not stated) | 6.2 | -1.6 | -22.8 | 7.4 | 10.8 | x
5 | NC(N)=NN=C(c1ccc(F)cc1)c1ccc(C(F)(F)F)cc1 | u | 12.5* | x | x | 32.5 | 44.4
6 | O=C(N/N=C/c1ccc(C(F)(F)F)cc1)c1ccc(O)cc1 | -84.4 | 1.3 | -17.4 | -2.9 | 6.2 | -43.8
7 | CCCCNC(=O)c1onc(CSc2ccccc2C)c1C(=O)O | -13.4 | 8.3* | -15.8 | 6.9 | -1.2 | 6.9
8 | COc1ccc(S(=O)(=O)c2c(C)c(NS(=O)(=O)c3ccccc3)cc(C)c2O)cc1 | 14.4 | 0.1 | x | x | x | 10.1
9 | COc1ccc(S(=O)(=O)Nc2cc(C)c(O)c(S(=O)(=O)c3ccccc3)c2)cc1 | x | x | 0.4 | 1.9 | 129.1* | x
10 | Cc1cc(C(=O)CSc2nnc3ccccn23)c(C)n1-c1ccccc1 | 97.8* | x | x | x | x | x
11 | Cc1nc(N/N=C/c2ccccn2)sc1C | 102.3* | x | x | x | x | u
12 | Cc1ccc(S(=O)(=O)Nc2ccc3c(c2)C(=O)N([C@H](C)CO)C[C@@H](C)[C@@H](CN(C)S(=O)(=O)c2ccc(F)cc2)OCCCC[C@H](C)O3)cc1 | 11.5 | 1.6 | -9.6 | 0.6 | -5.9[16.7 µM] | 1.0
13 | C[C@]12C=CC(=O)C=C1CC[C@@H]1C2[C@@H](O)C[C@@]2(C)C1CC[C@]2(O)C(=O)COC(=O)CCC(=O)O (some centres not stated) | 16.9 | 8.2* | -9.3 | -0.1 | x | 1.6
14 | Cc1ccc(S(=O)(=O)N2c3cc(C)ccc3OCC2C(C)(C)C)cc1 (configuration not stated) | x | x | -0.7 | 5.1 | 64.9 | x
15 | COc1ccc(S(=O)(=O)N2c3cc(C)ccc3OCC2C(C)(C)C)cc1 (configuration not stated) | x | x | -23.7 | 3.0 | 151.4* | x
16 | O=[N+]([O-])c1ccc(NN=Cc2cccc3ccccc23)nc1 | -23.9 | -1.0 | -14.5 | 2.4 | 2.8 | -24.0
17 | COc1cccc(/C=N/Nc2ncccc2[N+](=O)[O-])c1OC | 97.2* | 0.8 | -87.7 | -0.4 | 8.6 | 66.1*
18 | COc1cccc(/C=N/Nc2ccc([N+](=O)[O-])cn2)c1O | 67.1* | x | -39.1 | -0.5 | -32.7 | -26.9
19 | O=C(NCCN1CCOCC1)[C@]1(CCS(=O)(=O)c2ccccc2)N=C(c2ccc(OCCCO)cc2)O[C@@H]1c1ccccc1 | x | 2.1 | 4.6 | 7.1 | x | -7.7
20 | COc1ccc(NC(=O)CSc2nnc(Cc3cccn3C)n2-c2ccc(F)cc2)cc1 | 31.0 | 2.3 | -13.5 | -0.9 | x | -15.2

# (next part)
nr | mol | LGR2 inh | F508del corr | UUG fidelity | PglD inh | miR122 inh | EWS-Fli block
21 | CCCc1cc(=O)oc2cc(OCc3nn[nH]n3)ccc12 | x | x | -12.6 | 0.7 | 163.8* | x
22 | CC(=O)N[C@H]1CC[C@H](CC(=O)NCc2ccc(Cl)cc2)O[C@H]1CO | -14.2 | -1.9 | -19.2 | 16.7* | x | 2.1
23 | COc1ccc(CN2C[C@@H](CO)O[C@@H](n3cnc4c(N5CCN(c6ccccc6)CC5)ncnc43)C2)cc1 | x | x | -8.6 | 5.9 | -2.9 | 11.5
24 | CCc1ccc(NC(=O)CN2CCc3ccccc3C2)cc1 | x | x | -10.9 | -3.9 | 264.8* | x
25 | COc1cccc(/C=N/N2CCN(C3c4ccccc4-c4ccccc43)CC2)c1O | 2.0 | -0.1 | -12.1 | 1.1 | 9.6 | -1.0
26 | CCN[C@H]1C[C@H](C)S(=O)(=O)c2sc(S(N)(=O)=O)cc21 | 1.7 | 1.9 | -6.5 | 0.7 | 0.6 | -5.5
27 | CCN[C@H]1CN(CCCOC)S(=O)(=O)c2sc(S(N)(=O)=O)cc21 | -0.4 | 10.0* | -8.9 | -0.5 | 2.3 | -0.7
28 | COC(=O)c1ccc(CNC(=O)c2ccc(NS(=O)(=O)c3ccc4[nH]c(=O)[nH]c4c3)cc2)cc1 | 3.8 | -2.2 | 9.3 | -2.6 | x | -1.2
29 | Cc1ccc(NC(=O)c2ccc(Nc3c([N+](=O)[O-])cc([N+](=O)[O-])cc3[N+](=O)[O-])cc2)cc1 | 85.5* | x | x | x | x | 38.2
30 | CC(=O)Nc1ccc(NC(=O)c2cc([N+](=O)[O-])cc([N+](=O)[O-])c2)cc1 | -5.9 | -0.6 | 3.7 | 1.6 | -5.2 | 4.7
31 | C=CCOc1cccc(/C=N/NC(=O)C(=O)NCc2ccco2)c1 | 7.3 | x | x | x | -2.2 | x
32 | CC(C)n1c(/C=C/c2ccccc2)nc2ccccc21 | -32.8 | x | -14.5 | 0.6 | 192.0* | x
33 | CNc1ncnc(Sc2nc(N)nc3nc[nH]c23)c1[N+](=O)[O-] | 6.9 | -11.8 | x | x | 1.3 | 64.3*
34 | Nc1nc(Sc2ccc([N+](=O)[O-])c3nonc23)c2[nH]cnc2n1 | x | -7.3 | x | x | -0.1 | 27.5
35 | CCc1cccc(NS(=O)(=O)c2ccc3c(c2)N(C)CCO3)c1 | 11.8 | -1.2 | 10.4 | 4.0 | 172.4* | -1.1
36 | CC(=O)N1CCOc2ccc(S(=O)(=O)NCCc3cccc(C)c3)cc21 | 1.0 | -1.4 | 2.1 | 0.2 | 116.5* | 0.9
37 | CC(=O)N1CCOc2ccc(S(=O)(=O)NCCc3ccccc3)cc21 | -14.6 | -0.5 | -2.9 | -1.7 | 3.8 | 3.3
38 | Cc1cccc(NS(=O)(=O)c2ccc3c(c2)OCCO3)c1 | 10.7 | x | -12.8 | -4.9 | 118.9* | x
39 | CC(=O)N1CCSc2ccc(S(=O)(=O)NCCc3ccc(Cl)cc3)cc21 | 9.6 | -0.2 | -12.4 | 9.4 | 93.9* | x
40 | CO[C@@H]1CN(C)C(=O)c2ccc(NC(=O)c3ccccc3F)cc2OC[C@@H](C)N(C(C)=O)C[C@@H]1C | 24.9 | 0.4 | 1.9 | 0.5 | x | -6.8

# Some of the entries so far, screen by screen.
[23] COc1ccc(CN2C[C@@H](CO)O[C@@H](n3cnc4c(N5CCN(c6ccccc6)CC5)ncnc43)C2)cc1
[24] CCc1ccc(NC(=O)CN2CCc3ccccc3C2)cc1
[28] COC(=O)c1ccc(CNC(=O)c2ccc(NS(=O)(=O)c3ccc4[nH]c(=O)[nH]c4c3)cc2)cc1
[40] CO[C@@H]1CN(C)C(=O)c2ccc(NC(=O)c3ccccc3F)cc2OC[C@@H](C)N(C(C)=O)C[C@@H]1C
[25] COc1cccc(/C=N/N2CCN(C3c4ccccc4-c4ccccc43)CC2)c1O
assay / compound | 23 | 24 | 28 | 40 | 25
LGR2 inh | x | x | 3.8 | 24.9 | 2.0
F508del corr | x | x | -2.2 | 0.4 | -0.1
UUG fidelity | -8.6 | -10.9 | 9.3 | 1.9 | -12.1
PglD inh | 5.9 | -3.9 | -2.6 | 0.5 | 1.1
miR122 inh | -2.9 | 264.8* | x | x | 9.6
EWS-Fli block | 11.5 | x | -1.2 | -6.8 | -1.0

# The listing continues:
nr | mol | LGR2 inh | F508del corr | UUG fidelity | PglD inh | miR122 inh | EWS-Fli block
41 | CCOC(=O)C1(C)C(=O)CC2c3nc4ccccc4cc3CN2C1=O (configuration not stated) | x | -1.7 | -29.1 | 1.5 | -3.1 | -5.9
42 | COc1cc([N+](=O)[O-])ccc1N1C(=O)CC(Sc2nccc(C)n2)C1=O (configuration not stated) | 21.9 | 3.3 | -0.4 | 3.2 | x | 0.4
43 | CCOc1ccc(CCNC(=O)Cn2ccc3cc(S(=O)(=O)N4CCCC4)ccc32)cc1 | -9.3 | -0.6 | -8.8 | 4.7 | 14.3 | 19.7
44 | CC1CCCN(CC(O)COCC2COc3ccccc3O2)C1 (configuration not stated) | x | x | -2.7 | -8.1 | -3.4 | x
45 | COc1ccc(CN(C)C[C@@H]2OCCCC[C@H](C)Oc3ccc(NS(=O)(=O)c4ccccc4)cc3C(=O)N([C@H](C)CO)C[C@H]2C)cc1 | -5.2 | 1.9 | 10.2 | 5.7 | -12.5[16.7 µM] | 11.4
46 | O=S(=O)(Nc1ccc(Cl)cc1)c1ccc2c(c1)CCO2 | 17.3 | -1.7 | -9.3 | -1.8 | 122.6* | -11.7
